Curated experimental data: melting point values

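OPERA's authors assembled the values from existing databases and did not measure them anew. A listed value is a point estimate from one report or more. Conditions of the individual experiments are not part of the data. Where a salt, mixture or single isomer is drawn, the source does not say that exactly this form was tested. Some upstream entries may be estimates or bounds without being marked so.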

Melting points are in °C.
The databases behind each value are named after "via".

CC(C)C(NC(=O)Nc1ccccc1)C(=O)O (stereo not drawn) [2-[(anilinocarbonyl)amino]-3-methylbutanoic acid] has MP 141 °C (via OCHEM). The entry for O=S(=O)([O-])CC(O)C[n+]1ccccc1 (stereo not drawn) [1-(2-Hydroxy-3-sulphonatopropyl)pyridinium] lists MP 245.4 °C (via eChemPortal). The entry for C[C@H]1CC[C@@H]2N(C1)C[C@@H]1[C@H]([C@@H](O)[C@H](O)[C@]3(O)[C@H]1C[C@@]14O[C@@]5(O)[C@@H]([C@@H](O)[C@@H](O)[C@@H]31)[C@]4(C)CC[C@@H]5O)[C@]2(C)O [Protoverine] lists MP 221 °C (via OCHEM). O=C(O)CCN1C(=O)NC2(CCCCC2)C1=O [3-(2,4-Dioxo-1,3-diazaspiro[4.5]decan-3-yl)propanoic acid] is reported with MP 101 °C (via OCHEM).

The entry for NC(=O)c1c(N)sc2c1CCCC2 [2-Amino-4,5,6,7-tetrahydro-1-benzothiophene-3-carboxamide] lists MP 154 °C (via OCHEM). For C[C@H](Nc1ncnc2nc[nH]c12)c1cc2cccc(Cl)c2c(=O)n1-c1ccccc1 [Duvelisib] the data give MP 190 °C (via PubChem). For Cc1cc(C)c2c(N)c(C(=O)O)sc2n1 [3-Amino-4,6-dimethylthieno[2,3-b]pyridine-2-carboxylic acid] the data give MP 146 °C (via OCHEM). For O=C(Nc1ccc(O)cc1)c1ccco1 [Furan-2-carboxylic acid (4-hydroxy-phenyl)-amide] the data give MP 219 °C (via OCHEM).

CCCCC(CC)CN1CN(CC(CC)CCCC)CC(C)(N)C1 (stereo not drawn) [Hexetidine] has MP 70 °C (via PubChem). Listed for CCOC(=O)CN1C(=O)C(=O)c2ccccc21: MP 128 °C (via OCHEM). CCOC(=O)Cc1ccccc1Br [Ethyl 2-(2-bromophenyl)acetate] has MP 36.5 °C (via OCHEM). The entry for CC1=C(O)C(=O)c2ccccc2C1=O [2-ME-3-OH-1,4-NAPHTHOQUINONE] lists MP 174 °C (via OCHEM).

For Cc1ccc(Nc2cc(C(=O)O)c(Nc3ccc(C)cc3)cc2C(=O)O)cc1 [2,5-Bis(p-toluidino)terephthalic acid] the data give MP 326 °C (via eChemPortal). Cn1cc(C(=O)NN)c2ccccc21 [1-methyl-1H-indole-3-carbohydrazide] has MP 139 °C (via OCHEM). Cn1c(=O)c2cc(N)cnc2n(C)c1=O [6-Amino-1,3-dimethylpyrido[2,3-d]pyrimidine-2,4(1H,3H)-dione] is reported with MP 220 °C (via OCHEM). The entry for C=CC(=O)OCC(O)COCCCCOCC(O)COC(=O)C=C (stereo not drawn) [1,4-Bis(3-acryloxy-2-hydroxypropoxy)butane] lists MP -58 °C (via eChemPortal).

NNc1cc(N2CCOCC2)ncn1 [4-(6-Hydrazinylpyrimidin-4-yl)morpholine] is reported with MP 166.5 °C (via eChemPortal). The entry for CCOc1ccc(NC(=S)NN)cc1 [N-(4-ethoxyphenyl)hydrazinecarbothioamide] lists MP 180 °C (via OCHEM). Listed for Nn1c(-c2ccco2)n[nH]c1=S: MP 208 °C (via OCHEM). Listed for Cc1ccc(-c2ncc(Cl)cc2-c2ccc(S(C)(=O)=O)cc2)cn1.Cc1ccc(S(=O)(=O)O)cc1: MP 216.5 °C (via eChemPortal).

For Cc1ccc(N2CC(C(=O)O)CC2=O)cc1 (stereo not drawn) [5-Oxo-1-p-tolyl-pyrrolidine-3-carboxylic acid] the data give MP 185 °C (via OCHEM). O=C(CCCCl)c1ccc(O)cc1 [4-Chloro-4'-hydroxybutyrophenone] is reported with MP 112.5 °C (via OCHEM). Listed for COC(=O)c1cc(C)ccc1C1=NC(=O)C(C)(C(C)C)N1 (stereo not drawn): MP 113 °C (via OCHEM). Listed for CC(C)CN1CC(C(=O)O)CC1=O (stereo not drawn) [1-isobutyl-5-oxopyrrolidine-3-carboxylic acid]: MP 84 °C (via OCHEM).

Listed for COc1cc(C[C@H]2COC(=O)[C@@H]2Cc2ccc(O)c(OC)c2)ccc1O [Matairesinol]: MP 119 °C (via PubChem). Listed for CN(c1ccccc1)S(=O)(=O)c1ccccc1C(=O)O [2-[Methyl(phenyl)sulfamoyl]benzoic acid]: MP 137 °C (via OCHEM). O=C(O)c1ccc(N2CCCCC2=O)cc1 [4-(2-oxopiperidin-1-yl)benzoic acid] has MP 214 °C (via OCHEM). The entry for CCCCCCCCC1CO1 (stereo not drawn) [1,2-Epoxydecane] lists MP -22 °C (via eChemPortal).

Cc1ccc(C(=O)CBr)cc1[N+](=O)[O-] [2-bromo-1-(4-methyl-3-nitrophenyl)ethanone] is reported with MP 46 °C (via OCHEM). N#CCC(=O)NC1CCCC1 [2-cyano-N-cyclopentylacetamide] is reported with MP 93 °C (via OCHEM). CC(=O)c1ccc(-n2cnc3ccccc32)cc1 [1-[4-(1H-Benzimidazol-1-yl)phenyl]ethan-1-one] has MP 136 °C (via OCHEM). The entry for CC(=O)Nc1ccc(O)c(S(=O)(=O)Cl)c1 [5-Acetamido-2-hydroxybenzene-1-sulfonyl chloride] lists MP 165 °C (via OCHEM).

For COC(=O)CCCCCNC(N)=S [methyl 6-[(aminocarbonothioyl)amino]hexanoate] the data give MP 85 °C (via OCHEM). For O=c1[nH]cnc2scc(-c3ccc(F)cc3)c12 [5-(4-Fluorophenyl)thieno[2,3-d]pyrimidin-4(3H)-one] the data give MP 232 °C (via OCHEM). CCO[Si](CNC1CCCCC1)(OCC)OCC [Cyclohexanamine, N-[(triethoxysilyl)methyl]-] has MP -80.15 °C (via eChemPortal). Listed for CC1(C)[C@@H]2CC[C@@]3(C2)[C@H]1C(=O)CCC3(C)C (relative stereo): MP -7.1 °C (via eChemPortal).

CC(C)(C)C1CCc2sc(C(=O)O)cc2C1 (stereo not drawn) has MP 170 °C (via OCHEM). O=C(Nc1ccccc1C(=O)O)c1ccc(Cl)cc1 [2-[(4-chlorobenzoyl)amino]benzoic acid] has MP 209 °C (via OCHEM). For COc1ccccc1NCCC(=O)O [b-Alanine, N-(2-methoxyphenyl)-] the data give MP 85 °C (via OCHEM). Listed for O=C1NC2(CCCCC2)NC2=C1CCCC2: MP 194 °C (via OCHEM).

For Cl.c1ccc2c(CC3=NCCN3)cccc2c1 [Naphazoline hydrochloride] the data give MP 257.8 °C (via OCHEM, PubChem). For O=C(O)c1cnc2ccccn2c1=O [4-Oxo-4H-pyrido[1,2-a]pyrimidine-3-carboxylic acid] the data give MP 252 °C (via OCHEM). O=P(N1CC1)(N1CC1)N(/N=C/c1ccc(Cl)cc1)c1ccccc1 [TEPA,N-p-CL-benzyliden-N-Ph-hydrazin1yl] has MP 136 °C (via OCHEM). For CC(=O)Nc1cccc(N=C=S)c1 [Acetamide, N-(3-isothiocyanatophenyl)-] the data give MP 155 °C (via OCHEM).

Listed for COc1c(OC)c(OC(C)=O)c2cc(F)ccc2c1OC(C)=O [6-Fluoro-2,3-dimethoxy-1,4-naphthalenediyl diacetate]: MP 102 °C (via OCHEM). Listed for Cl.NC(CO)C(=O)N/N=C/c1ccc(O)c(O)c1O (stereo partly drawn): MP 218 °C (via eChemPortal). For O=[N+]([O-])c1ccc(C=NN(c2ccccc2)P(=O)(N2CC2)N2CC2)cc1 the data give MP 150 °C (via OCHEM). Listed for NC(=S)NC1CC1 [N-cyclopropylthiourea]: MP 139 °C (via OCHEM).

Listed for COc1ccc(C)cc1NC(=O)CCl [2-chloro-N-(2-methoxy-5-methylphenyl)acetamide]: MP 74 °C (via OCHEM).

The last 5 entries again:

{"smiles": "COc1c(OC)c(OC(C)=O)c2cc(F)ccc2c1OC(C)=O", "name": "6-Fluoro-2,3-dimethoxy-1,4-naphthalenediyl diacetate", "MP (°C)": "102", "via": "OCHEM"}
{"smiles": "Cl.NC(CO)C(=O)N/N=C/c1ccc(O)c(O)c1O", "stereo": "stereo partly drawn", "MP (°C)": "218", "via": "eChemPortal"}
{"smiles": "O=[N+]([O-])c1ccc(C=NN(c2ccccc2)P(=O)(N2CC2)N2CC2)cc1", "MP (°C)": "150", "via": "OCHEM"}
{"smiles": "NC(=S)NC1CC1", "name": "N-cyclopropylthiourea", "MP (°C)": "139", "via": "OCHEM"}
{"smiles": "COc1ccc(C)cc1NC(=O)CCl", "name": "2-chloro-N-(2-methoxy-5-methylphenyl)acetamide", "MP (°C)": "74", "via": "OCHEM"}

Data: OPERA 2.9 data sets, kmansouri/OPERA on GitHub.